We go through 60 compounds from PubChem BioAssay AID1053197 (The Scripps Research Institute Molecular Screening Center, 2014).

Chains of the proteins cited; added tags and fusions are not shown.
UniProt Q9HAT2, whole entry: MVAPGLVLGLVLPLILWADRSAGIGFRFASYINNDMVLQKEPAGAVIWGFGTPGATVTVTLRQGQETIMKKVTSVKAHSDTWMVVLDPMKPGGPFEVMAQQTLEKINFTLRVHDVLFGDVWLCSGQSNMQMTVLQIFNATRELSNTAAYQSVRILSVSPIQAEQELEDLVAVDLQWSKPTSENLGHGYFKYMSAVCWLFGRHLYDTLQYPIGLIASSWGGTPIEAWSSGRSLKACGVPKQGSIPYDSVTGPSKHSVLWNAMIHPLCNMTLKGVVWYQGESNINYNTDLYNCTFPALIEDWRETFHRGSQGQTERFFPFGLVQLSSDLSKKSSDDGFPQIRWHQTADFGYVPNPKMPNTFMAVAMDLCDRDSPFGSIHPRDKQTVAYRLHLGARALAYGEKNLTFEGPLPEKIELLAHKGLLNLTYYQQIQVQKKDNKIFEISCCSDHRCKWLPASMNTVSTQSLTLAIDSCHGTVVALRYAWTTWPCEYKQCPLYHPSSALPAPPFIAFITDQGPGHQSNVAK

Molecules are shown by their SMILES. The list shows a part of the results, in another mix than the full data. Activity calls are given as the source filed them.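 Rule for the calls: active = inhibition above a cutoff: mean of compounds within the control limits plus 3 SD of those (cut at about 17% in these data); inactive = the rest.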

For the assay, the target named is Sialate O-acetylesterase (Homo sapiens) (UniProt Q9HAT2). Nature of the assay: blockers of sialate O-acetylesterase activity-probe labeling – biochemical, fluorescence polarization, FP-Rh probe, 1536-well HTS, primary screen (AID 1053197).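 Note: 0% = plate median of compound wells and 100% = probe without SIAE protein.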 To be noted: SIAE FP-Rh probe binding, at 9.66 µM, active compounds read high. Background: Fluorescence polarisation rises when a labelled molecule tumbles more slowly, as on binding a larger partner.
For `CCC(c1nnnn1C1CCCCC1)N1CCC(n2c(=O)[nH]c3ccccc32)CC1` (stereo not given), the inhibition (as a rule, the drop in the measured response relative to a control, in per cent) is inactive: -5.07%.
As for `COc1cccc(C(c2nnnn2C2CCCCC2)N2CCC(n3c(=O)[nH]c4ccccc43)CC2)c1OC` (stereo not given), the inhibition is inactive: -0.13%.
The same measure for `CC(=O)N(c1ccccc1)C1CCNCC1`: inactive: 7.13%; for `COc1cc(OC)cc(C(=O)NCC2(N3CCCCC3)CCCCC2)c1`: inactive: 1.25%.
The same measure for `O=c1[nH]c2ccccc2n1C1CCN(C(c2ccnc3ccccc23)c2nnnn2C2CCCCC2)CC1` (stereo not given): inactive: -6.19%.
The same measure for `Fc1ccccc1NC1CCN(Cc2ccccc2)CC1`: inactive: -6.5%; for `Cc1ccc(C(=O)NCC2(N3CCCCC3)CCCCC2)o1`: inactive: 2.4%; for `Cc1ccc(NC2(C#N)CCN(Cc3ccccc3)CC2)cc1`: inactive: 0.74%.
In the case of `CCN1CCC(Nc2cccc(F)c2)CC1`, the inhibition is inactive: -3%.
The same measure for `COc1ccc(C(c2nnnn2C2CCCCC2)N2CCC(n3c(=O)[nH]c4ccccc43)CC2)cc1` (stereo not given): inactive: -4.56%.
As for `CC(C)(C)n1nnnc1C(c1ccnc2ccccc12)N1CCC(n2c(=O)[nH]c3ccccc32)CC1` (stereo not given), the inhibition is inactive: -3.71%.
The same measure for `Cc1ccccc1NC1(C#N)CCN(Cc2ccccc2)CC1`: inactive: -0.67%.
On to `CN(C)c1ccc(C(=O)NCC2(N3CCCCC3)CCCCC2)cc1`, for which the inhibition is inactive: 5.74%.
The same measure for `Cn1c(=O)[nH]cc(N(CCCl)CCCl)c1=O`: inactive: 4.75%; for `O=C(NCC1(N2CCCCC2)CCCCC1)c1ccco1`: inactive: -15.7%; for `CN1CCC(Nc2ccc(F)c(Cl)c2)CC1`: inactive: 0.83%.
The same measure for `CCOc1ncccc1C(=O)NCC1(N2CCOCC2)CCCCC1`: inactive: -3.53%; for `NN(c1ccccc1)C1CCN(CCc2ccccc2)CC1`: inactive: 2.56%.
With `O=C(O)C1(Nc2ccccc2)CCN(Cc2ccccc2)CC1`, the inhibition is inactive: 3.75%.
The same measure for `CC(C)(C)OC(=O)N1CCC(Nc2ccccc2)CC1`: inactive: -1.21%; for `O=c1[nH]c2ccccc2n1C1CCN(C(c2cc3ccccc3o2)c2nnnn2C2CCCC2)CC1` (stereo not given): inactive: -3.23%.
In the case of `CCCOc1ccc(C(=O)NCC2(N(C)C)CCCCC2)cc1`, the inhibition is inactive: 3.23%.
The same measure for `COc1cccc(C(=O)N(c2cc(C)cc(C)c2)C2CCN(C(=O)OC(C)(C)C)CC2)c1`: inactive: 5.75%.
For `COc1cc(OC)cc(C(=O)NCC2(N3CCOCC3)CCCCC2)c1`, the inhibition is inactive: -1.21%.
The same measure for `COc1cccc(C(c2nnnn2C2CCCC2)N2CCC(n3c(=O)[nH]c4ccccc43)CC2)c1OC` (stereo not given): inactive: -2.03%; for `CCC(CO)(C(=O)OC1CN2CCC1CC2)c1ccccc1` (stereo not given): inactive: 2.82%.
The same measure for `CN1CCC(Nc2ccc(Cl)cc2)CC1`: inactive: 9.3%.
The same measure for `COc1cc(C(=O)NCC2(N3CCOCC3)CCCCC2)cc(OC)c1C`: inactive: -9.08%; for `CCCCn1nnnc1C(c1ccccc1)N1CCC(n2c(=O)[nH]c3ccccc32)CC1` (stereo not given): inactive: -3.23%; for `O=C(NCC1(N2CCOCC2)CCCCC1)c1cc(Br)ccc1Cl`: inactive: 8.03%.
For the compound `NC(=O)C1(Nc2ccccc2)CCN(Cc2ccccc2)CC1`, the inhibition was inactive: -6.59%.
The same measure for `O=c1[nH]c2ccccc2n1C1CCN(C(c2cccs2)c2nnnn2C2CCCCC2)CC1` (stereo not given): inactive: 0.87%; for `O=c1[nH]c2ccccc2n1C1CCN(C(c2ccnc3ccccc23)c2nnnn2C2CCCC2)CC1` (stereo not given): inactive: -1.35%.
The same measure for `COc1ccc(C(=O)NCC2(N3CCOCC3)CCCCC2)cc1OC`: inactive: 3.02%.
The same measure for `CCOC(=O)N1CCC(Nc2ccc(C)cc2)CC1`: inactive: -1.36%.
As to `COc1cccc(C(c2nnnn2C(C)(C)C)N2CCC(n3c(=O)[nH]c4ccccc43)CC2)c1OC` (stereo not given), the inhibition was inactive: 4.66%.
The same measure for `N/C(=N\O)c1c(N)no[n+]1[O-]`: inactive: 0.78%; for `O=c1[nH]c2ccccc2n1C1CCN(C(c2cccs2)c2nnnn2C2CCCC2)CC1` (stereo not given): inactive: -6.44%.
The same measure for `O=C(OC1CN2CCC1CC2)C1c2ccccc2C=Cc2ccccc21` (stereo not given): inactive: -0.74%; for `CCCCn1nnnc1C(c1cccc(OC)c1OC)N1CCC(n2c(=O)[nH]c3ccccc32)CC1` (stereo not given): inactive: 2.25%; for `N#Cc1ccc(C(=O)NCC2(N3CCCCC3)CCCCC2)cc1`: inactive: -0.05%.
As to `CC(C)(C)OC(=O)N1CCC(N(C(=O)c2ccccc2)c2ccc(Cl)cc2)CC1`, the inhibition is inactive: -4.45%.
`CN(C)C1(CNC(=O)c2cccc(C#N)c2)CCCCC1`: the inhibition is inactive: -4.15%.
As for `Cc1cc(N(CCCl)CCCl)ccc1C=O`, the inhibition was inactive: -2.51%.
The same measure for `CCCN1CCC(Nc2cc(OC)cc(OC)c2)CC1`: inactive: -3.07%; for `O=c1[nH]c2ccccc2n1C1CCN(C(c2ccccc2)c2nnnn2C2CCCC2)CC1` (stereo not given): inactive: -0.26%.
The same measure for `C/C(N)=N\P(=O)(Oc1ccccc1)Oc1ccccc1`: inactive: -4.58%; for `c1ccc(CN2CCC(Nc3ccccc3)CC2)cc1`: inactive: 3.68%.
The same measure for `CC(C)(C)n1nnnc1C(c1cccc2ccccc12)N1CCC(n2c(=O)[nH]c3ccccc32)CC1` (stereo not given): inactive: -6.73%; for `O=C(NCC1(N2CCCCC2)CCCCC1)c1ccc(OC(F)F)cc1`: inactive: -2.3%.
Turning to `CC(C)(C)n1nnnc1C(c1ccccc1OC(F)(F)F)N1CCC(n2c(=O)[nH]c3ccccc32)CC1` (stereo not given), the inhibition is inactive: -6.22%.
The same measure for `O=c1[nH]c2ccccc2n1C1CCN(C(c2ccccc2OC(F)(F)F)c2nnnn2C2CCCC2)CC1` (stereo not given): inactive: -4.41%; for `N#CC1(Nc2ccccc2)CCN(CCc2ccccc2)CC1`: inactive: -1.96%.
The same measure for `CCN1CCC(Nc2ccc(Cl)cc2)CC1`: inactive: 1.32%; for `O=C(NCC1(N2CCCCC2)CCCCC1)c1cccc([N+](=O)[O-])c1`: inactive: -7.09%.
The same measure for `CSc1ccc(C(=O)NCC2(N3CCOCC3)CCCCC2)cc1`: inactive: -1.31%; for `O=C(NCC1(N2CCCCC2)CCCCC1)c1cccc(C(F)(F)F)c1`: inactive: -5.43%.
`O=C(NCC1(N2CCOCC2)CCCCC1)c1cc(=O)[nH]c2ccccc12`: the inhibition is inactive: 3.48%.
Turning to `COc1cc(C(=O)NCC2(N3CCCCC3)CCCCC2)ccc1OC(F)F`, the inhibition is inactive: 10.5%.
As to `CC(C)c1ccc(C(=O)NCC2(N3CCOCC3)CCCCC2)cc1`, the inhibition was inactive: 5.69%.
